Measured values taken from PubChem BioAssay AID504577 (NMMLSC, 2011).
This is a selection; strong and weak results do not stand in their true shares. Some salts or complexes appear as unconnected parts, following the source record. The source made the active and inactive calls. Cut-off read from the data, not from the text of the source: active = response mostly above about 7.3% (no sharp cut-off); inactive = mostly below about 5.4%.

Test: yeast vacuolar ATPase proton transport modulators – pHLuorin cytosolic pH fluorescence, primary screen (AID 504577); note: actives read high
Conditions: S. cerevisiae, at 10 µM, stronger effect = higher value

Row | SMILES | response
1 | CP(=O)(OCCOc1ccccc1)OCCOc1ccccc1 | inactive: 1.3%
2 | CP(=O)(Nc1ccc(Cl)cc1Cl)Oc1ccccc1 (centres undefined) | inactive: -0.37%
3 | CCCCCCCCCCCCCCCC1C[N+](C)(C)CCOP(C)(=O)O1 (centres undefined) | inactive: -3.49%
4 | COc1ccc(OP(C)(=O)Nc2ccccc2Br)cc1 (centres undefined) | inactive: 1.56%
5 | COc1ccccc1OP(C)(=O)Nc1ccc(C)c(C)c1 (centres undefined) | inactive: 1.19%
6 | Cc1cc(C)cc(OP(C)(=O)Nc2cccc(C(F)(F)F)c2)c1 (centres undefined) | inactive: -0.81%
7 | O=C1C(O)=C([N+](=O)[O-])C(=O)C(O)=C1[N+](=O)[O-] | inactive: -3.84%
8 | CCc1ccc(OP(C)(=O)O)cc1 | inactive: 1.72%
9 | COc1ccccc1OP(C)(=O)Nc1ccc(C)cc1C (centres undefined) | inactive: 1.84%
10 | CP(=O)(Nc1ccccn1)Oc1ccccc1 (centres undefined) | inactive: -5.9%
11 | O=[N+]([O-])c1cc([N+](=O)[O-])c(Nc2ccccn2)c([N+](=O)[O-])c1 | inactive: -2.25%
12 | Cc1c(NP(C)(=O)Oc2ccc(C(C)C)cc2)c(=O)n(-c2ccccc2)n1C (centres undefined) | inactive: 1.22%
13 | CN(C)CCOC(=O)C(O)(c1ccccc1)C1CCCC1 (centres undefined) | inactive: -0.1%
14 | COc1ccc(OP(C)(=O)Nc2ccccn2)cc1 (centres undefined) | inactive: 0.97%
15 | COc1ccccc1OP(C)(=O)Nc1ccc(Br)cc1 (centres undefined) | inactive: 0.22%
16 | CN(C)C(=O)c1c([N+](=O)[O-])cc([N+](=O)[O-])cc1[N+](=O)[O-] | inactive: -5.43%
17 | CP(=O)(Nc1ccc(Cl)cc1)Oc1ccc(F)cc1 (centres undefined) | inactive: 1.71%
18 | CC(C)(C)c1ccc(OP(C)(=O)O)cc1 | inactive: 5.04%
19 | COc1ccccc1OP(C)(=O)Nc1ccccc1Br (centres undefined) | inactive: 6.66%
20 | CCc1ccc(OP(C)(=O)Nc2cccnc2)cc1 (centres undefined) | inactive: 5.45%
21 | CP(=O)(Oc1ccccc1)N1CCOC1=O (centres undefined) | inactive: 3.82%
22 | O=C(OCCCN1CCCC1)C(O)(c1ccccc1)C1CCCCC1 (centres undefined) | inactive: -2.67%
23 | COc1ccccc1OP(C)(=O)Nc1c(C)n(C)n(-c2ccccc2)c1=O (centres undefined) | inactive: -0.28%
24 | COc1ccc(OP(C)(=O)Nc2ccc(Br)cc2)cc1 (centres undefined) | inactive: 0.75%

Row | SMILES | response
25 | CCN(CC)CC(O)COC(=O)C(O)(c1ccccc1)C1CCCCC1 (centres undefined) | inactive: -1.97%
26 | CP(=O)(OC12CC3CC(CC(C3)C1)C2)OC12CC3CC(CC(C3)C1)C2 | inactive: -0.12%
27 | CCOC(=O)c1ccc(NP(C)(=O)Oc2ccc(Cl)cc2)cc1 (centres undefined) | inactive: 1.21%
28 | Nc1ccc2c(ccc3cccnc32)n1.O=[N+]([O-])c1cc([N+](=O)[O-])c(O)c([N+](=O)[O-])c1 | inactive: -1.57%
29 | Cc1c(C(c2ccc3c(c2)OCO3)c2c(C)n(C)n(-c3ccccc3)c2=O)c(=O)n(-c2ccccc2)n1C.O=[N+]([O-])c1cc([N+](=O)[O-])c(O)c([N+](=O)[O-])c1 | inactive: -0.08%
30 | O=[N+]([O-])c1cc([N+](=O)[O-])c(NCC2CCS(=O)(=O)C2)c([N+](=O)[O-])c1 (centres undefined) | inactive: -2.67%
31 | Cc1cc(-c2cccc3ccccc23)c(C)cn1.O=[N+]([O-])c1cc([N+](=O)[O-])c(O)c([N+](=O)[O-])c1 | inactive: 0.07%
32 | O=[N+]([O-])c1ccc(OP2(=O)COCCO2)cc1 (centres undefined) | inactive: 7.54%
33 | COc1ccc(NP(C)(=O)Oc2ccccc2OC)cc1 (centres undefined) | inactive: 8.55%
34 | COc1ccc(OP(C)(=O)Nc2cccc(Br)c2)cc1 (centres undefined) | inactive: -0.01%
35 | Cc1ccccc1NP(C)(=O)Nc1ccccc1C | inactive: 0.84%
36 | CP(=O)(Nc1ccc2c(c1)OCCO2)Oc1ccccc1 (centres undefined) | inactive: -4.81%
37 | CCOP(C)(=S)SCC(=O)NC(C)(CC)C(=O)O (centres undefined) | inactive: 1.08%
38 | CP(=O)(Nc1ccc(SC(F)(F)F)cc1)Oc1ccc(F)cc1 (centres undefined) | inactive: -0.89%
39 | COc1ccc2c(c1O)-c1c(O)c(OC)cc3c1[C@H](C2)[N+](C)(C)CC3.O=[N+]([O-])c1cc([N+](=O)[O-])c([O-])c([N+](=O)[O-])c1[O-] | inactive: -5.68%
40 | O=C(OCCN1CCN(CCOCc2ccccc2)CC1)C(O)(c1ccccc1)c1ccccc1 | inactive: 0.95%
41 | O=C(OC1CN2CCC1CC2)c1ccc([N+](=O)[O-])cc1 (centres undefined) | inactive: 0.96%
42 | CC(C)c1ccc(OP(C)(=O)Nc2ccc(SC(F)(F)F)cc2)cc1 (centres undefined) | inactive: -4.26%
43 | CP(=O)(Nc1ccccc1F)Oc1ccccc1 (centres undefined) | inactive: 2.23%
44 | O=[N+]([O-])c1cc([N+](=O)[O-])c(Nc2ccc(Cl)cc2)c([N+](=O)[O-])c1 | inactive: -19%
45 | O=[N+]([O-])c1cc([N+](=O)[O-])c(OC2CCCCC2O)c([N+](=O)[O-])c1 (centres undefined) | inactive: -1.92%
46 | CCCCCOc1ccc(NP(C)(=O)Oc2ccc(Cl)cc2Cl)cc1 (centres undefined) | inactive: 2.86%
47 | CP(=O)(Nc1ccccc1)Oc1ccc(F)cc1 (centres undefined) | inactive: 1.69%
48 | CCN(CC)CCCOC(=O)C(O)(c1ccccc1)C1CCCCC1 (centres undefined) | inactive: -1.12%

Row | SMILES | response
49 | Cc1c([N+](=O)[O-])cc([N+](=O)[O-])c(Br)c1[N+](=O)[O-] | inactive: 5.5%
50 | COc1ccc(OP(C)(=O)Nc2ccc(SC(F)(F)F)cc2)cc1 (centres undefined) | inactive: 0.13%
51 | CCOC(=O)c1ccc(NP(C)(=O)Oc2ccc(F)cc2)cc1 (centres undefined) | inactive: 3.46%
52 | CC1=NCCc2c1[nH]c1ccccc21.O=[N+]([O-])c1cc([N+](=O)[O-])c(O)c([N+](=O)[O-])c1 | inactive: -0.75%
53 | O=C(O)c1cccc(Nc2c([N+](=O)[O-])cc([N+](=O)[O-])cc2[N+](=O)[O-])c1 | inactive: -0.51%
54 | CP(=O)(Nc1cccc(Br)c1)Oc1ccccc1 (centres undefined) | inactive: -2.19%
55 | Cc1cc(C)cc(OP(C)(=O)Nc2ccccn2)c1 (centres undefined) | inactive: 2.76%
56 | Cc1ccc(C)c(NP(C)(=O)Oc2ccccc2)c1 (centres undefined) | inactive: 3.97%
57 | Cc1cc(C)cc(OP(C)(=O)Nc2ccc(C)cc2C)c1 (centres undefined) | inactive: -4.82%
58 | CCOC(=O)c1ccc(NP(C)(=O)Oc2cc(C)cc(C)c2)cc1 (centres undefined) | inactive: 1.41%
59 | COc1ccccc1OP(C)(=O)Nc1cccc(Br)c1 (centres undefined) | inactive: -3.28%
60 | Cc1nc2ccc3ccccc3c2s1.O=[N+]([O-])c1cc([N+](=O)[O-])c(O)c([N+](=O)[O-])c1 | inactive: 2.58%
61 | O=[N+]([O-])c1cc([N+](=O)[O-])c(-c2cnn(-c3ccccc3)c2)c([N+](=O)[O-])c1 | inactive: 1.34%
62 | O=[N+]([O-])c1cc([N+](=O)[O-])c(-n2nnc3ccccc32)c([N+](=O)[O-])c1 | inactive: -0.98%
63 | CP(=O)(Nc1ccc(SC(F)(F)F)cc1)Oc1ccccc1 (centres undefined) | inactive: -0.39%
64 | CCCOc1ccc(NP(C)(=O)Oc2ccc(Cl)cc2)cc1 (centres undefined) | inactive: 0.61%
65 | COc1ccccc1OP(C)(=O)Nc1c(C)cccc1C (centres undefined) | inactive: -2.33%
66 | CN1CCCCC1COC(=O)C1(O)c2ccccc2CCc2ccccc21 (centres undefined) | inactive: -5.37%
67 | CCOC(=O)C(CC)C1=NC(C)(C)Cc2ccccc21.O=[N+]([O-])c1cc([N+](=O)[O-])c(O)c([N+](=O)[O-])c1 (centres undefined) | inactive: 0.88%
68 | O=[N+]([O-])c1cc([N+](=O)[O-])c(Nc2nnnn2CCO)c([N+](=O)[O-])c1 | inactive: -1%
69 | CC1=C2N=C(C=C3N=C(C(C)=C4[N-][C@@](C)([C@@H]5N=C1[C@](C)(CCC(=O)NC[C@@H](C)OP(=O)([O-])O[C@H]1[C@@H](O)[C@@H](n6cnc7cc(C)c(C)cc76)O[C@@H]1CO)[C@H]5CC(N)=O)[C@@](C)(CC(N)=O)[C@@H]4CCC(N)=O)[C@@](C)(CC(N)=O)[C@@H]3CCC(N)=O)C(C)(C)[C@@H]2CCC(N)=O.[C-]#N.[Co+3] | inactive: 0.43%
70 | COc1ccccc1OP(C)(=O)Nc1ccccc1 (centres undefined) | inactive: -1.81%
71 | CP(=O)(Nc1ccccc1Br)Oc1ccccc1 (centres undefined) | inactive: 0.54%
72 | CP(=S)(Nn1cnnc1)Oc1ccccc1 (centres undefined) | inactive: 2.55%

Row | SMILES | response
73 | CP(=O)(Nc1ccccn1)Oc1ccc(Cl)cc1 (centres undefined) | inactive: -2.83%
74 | CCOP(C)(=S)SCC(=O)NC(C)C(=O)O (centres undefined) | inactive: 6.07%
75 | CCOC(=O)c1ccc(NP(C)(=O)Oc2ccc(OC)cc2)cc1 (centres undefined) | inactive: -4.2%
76 | O=[N+]([O-])c1cc([N+](=O)[O-])c(O)c([N+](=O)[O-])c1.c1ccc(Oc2ccncc2)cc1 | inactive: -4.47%
77 | Cc1cc(C)cc(OP(C)(=O)Nc2ccc(SC(F)(F)F)cc2)c1 (centres undefined) | inactive: -0.76%
78 | CCc1ccc(OP(C)(=O)N2CCN(c3ccc([N+](=O)[O-])cc3)CC2)cc1 (centres undefined) | inactive: 3.23%
79 | CP(=O)(NC(=O)Nc1ccccc1)Oc1ccccc1 (centres undefined) | inactive: 3.33%
80 | CP(=O)(Oc1ccccc1)OC(c1ccccc1)C(F)(F)F (centres undefined) | inactive: 0.6%
81 | Cc1cccc(C)c1OP(C)(=O)Nc1ccc(SC(F)(F)F)cc1 (centres undefined) | inactive: 0.72%
82 | Cc1ccc(Nc2c([N+](=O)[O-])cc([N+](=O)[O-])cc2[N+](=O)[O-])cc1 | inactive: 3.49%
83 | CP(=O)(Nc1ccc(SC(F)(F)F)cc1)Oc1ccc(Cl)cc1 (centres undefined) | inactive: 3.67%
84 | CCN(CC)CCCOC(=O)C(O)(c1ccccc1)c1ccccc1 | inactive: 2.25%
85 | COc1ccc(OP(C)(=O)Nc2cccc(F)c2)cc1 (centres undefined) | inactive: 3.56%
86 | COc1ccccc1OP(C)(=O)Nc1cc(Cl)ccc1C (centres undefined) | inactive: -0.1%
87 | Cc1cc(C)cc(OP(C)(N)=O)c1 (centres undefined) | inactive: -0.39%
88 | CCOC(=O)c1ccc(NP(C)(=O)Oc2ccccc2)cc1 (centres undefined) | inactive: 0.41%
89 | Cc1ccc(NP(C)(=O)Oc2ccccc2)c(C)c1 (centres undefined) | inactive: 3.9%
90 | COc1ccccc1OP(C)(=O)Nc1ccc(C)cc1 (centres undefined) | inactive: 2.52%
91 | Cc1cccc(C)c1OP(C)(N)=O (centres undefined) | inactive: -0.84%
92 | CC(C)(C)c1ccc(OP(C)(=O)Nc2ccc(SC(F)(F)F)cc2)cc1 (centres undefined) | inactive: 1.85%
93 | O=[N+]([O-])c1ccc2c(c1)C=Nc1ccccc1O2 | inactive: -0.12%
94 | O=[N+]([O-])c1cc([N+](=O)[O-])c(Nc2cccnc2)c([N+](=O)[O-])c1 | inactive: -1.26%
